These results are taken from ChEMBL document CHEMBL1125034, “Design and synthesis of 4H-3,1-benzoxazin-4-ones as potent alternate substrate inhibitors of human leukocyte elastase” (J Med Chem, 1990).

The target of assay [1] is T1, Neutrophil elastase (Homo sapiens) (UniProt P08246).
T1 sequence (whole entry): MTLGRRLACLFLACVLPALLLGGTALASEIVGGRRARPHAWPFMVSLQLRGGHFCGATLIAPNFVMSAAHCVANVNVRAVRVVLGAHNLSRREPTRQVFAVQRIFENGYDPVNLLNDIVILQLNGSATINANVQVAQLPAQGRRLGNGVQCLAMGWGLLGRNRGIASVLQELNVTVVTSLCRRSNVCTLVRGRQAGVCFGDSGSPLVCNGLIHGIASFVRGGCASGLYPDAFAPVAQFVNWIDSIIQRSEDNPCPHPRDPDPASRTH
Description: Component acylation rate constant for interaction with human leukocyte elastase.

Assay [2] deals with T1, Neutrophil elastase (Homo sapiens). Nature of the assay: Component deacylation rate constant for interaction with human leukocyte elastase.

In assay [1], `CCc1cccc2nc(C)oc(=O)c12` yielded a Log kon of 4.81. Besides, in assay [2], the Log koff was -2.11.

In assay [1], `O=c1oc(C(F)(F)F)nc2ccccc12` showed a Log kon of 5.

`CCSc1nc2ccc(C)cc2c(=O)o1`: the Log kon in assay [1] is 6.

`CCc1cccc2nc(NC(C)C)oc(=O)c12` returned a Log kon in assay [1] of 4.85. For the same compound, the Log koff in assay [2] was -4.18.

The compound `Nc1nc2ccccc2c(=O)o1` showed a Log kon in assay [1] of 2.91. Further, the Log koff in assay [2] was -1.29.

Turning to `O=c1oc(C(F)(F)C(F)(F)C(F)(F)F)nc2ccccc12`, in assay [1], the Log kon came out at 4.

Compound `Cc1cccc2nc(NC(C)C)oc(=O)c12` had a Log kon in assay [1] of 4.07. This compound had a Log koff in assay [2] of -4.75.

For the compound `CCCCNc1nc2ccccc2c(=O)o1`, the Log kon in assay [1] amounted to 4.82. In addition, the Log koff in assay [2] was -2.26.

In the case of `CCCNc1nc2ccccc2c(=O)o1`, the Log kon in assay [1] came out at 5.65. Further, the Log koff in assay [2] is -1.39.

In assay [2], `COC(=O)[C@H](CC(C)C)Nc1nc2cccc(C)c2c(=O)o1` returned a Log koff of -4.

`CC(C)(C)c1nc2ccccc2c(=O)o1` returned a Log kon in assay [1] of 4.

The compound `COC(=O)[C@H](CC(C)C)NC(=O)[C@H](CC(C)C)Nc1nc2cc(C)cc(C)c2c(=O)o1` returned a Log kon in assay [1] of 3.1.
